One experiment addresses Bcl-xL (Homo sapiens, UniProt Q07817). The experiment in a line: Time Resolved-Fluorescence Resonance Energy Transfer (TR-FRET) binding assay, competition with probe F-Bak. As to the method: Tb-anti-GST antibody was purchased from Invitrogen (Catalog No. PV4216).
For the assay, test compounds were serially diluted in DMSO starting at 50 μM (2× starting concentration; 10% DMSO) and 10 μL transferred into a 384-well plate. 10 μL of a protein/probe/antibody mix was then added to each well at final concentrations listed below:
The samples were then mixed on a shaker for 1 minute and incubated for an additional 2 hours at room temperature. For each assay plate, a probe/antibody and protein/antibody/probe mixture were included as a negative and a positive control, respectively. Fluorescence was measured on the Envision (Perkin Elmer) using a 340/35 nm excitation filter and 520/525 (F-Bak) and 495/510 nm (Tb-labeled anti-his antibody) emission filters. Dissociation constants (Ki) were determined using Wang's equation (Wang, 1995, FEBS Lett. 360:111-114). The TR-FRET assay can be performed in the presence of varying concentrations of human serum (HS) or fetal bovine serum (FBS). Compounds were tested both without HS and in the presence of 1% HS.
In general terms: In TR-FRET formats the signal depends on donor and acceptor labels being close together.

Chains of the proteins cited; added tags and fusions are not shown.
UniProt Q07817, whole entry: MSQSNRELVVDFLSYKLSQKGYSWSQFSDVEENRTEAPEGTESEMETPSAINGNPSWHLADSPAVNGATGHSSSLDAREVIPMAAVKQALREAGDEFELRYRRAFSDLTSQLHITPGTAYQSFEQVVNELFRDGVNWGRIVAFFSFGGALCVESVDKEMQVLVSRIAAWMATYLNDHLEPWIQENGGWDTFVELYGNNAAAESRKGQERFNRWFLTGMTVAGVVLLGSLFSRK

In experiment [1] the test system is permeabilized Bcl-xL dependent Molt-4 cells. Put plainly: Cytochrome C release in selectively (digitonin) permeabilized Molt-4 cells. The conditions noted are these: read-out: Molt-4 Permeabilized Cyt C Release, 4 h treatment. The source says: The permeabilization of the mitochondrial outer membrane to release proteins from the intermembrane space into the cytosol is a pivotal event in the process of apoptosis. Specifically, the release of cytochrome C triggers the formation of the apoptosome which, in turn, results in caspase activation and other events that will commit the cell to undergo programmed cell death (Goldstein el al., 2005, Cell Death and Differentiation 12:453). The process of mitochondrial outer membrane permeabilization (MOMP) is controlled by the Bcl-2 family members. It is promoted by the multidomain pro-apoptotic proteins Bax and Bak which, upon activation, oligomerize on the outer mitochondrial membrane and form pores to ultimately release cytochrome C. This action is antagonized by the antiapoptotic members, including Bcl-2 and Bcl-xL. […] This process of cytochrome C release can be measured in cells via Western blot of both mitochrondrial and cytosolic fractions, and can be used a proxy measurement of apoptosis in cells. […]
To determine if Bcl-xL inhibitors were inducing cell death through apoptosis, cytochrome C release was measured in Bcl-xL dependent Molt-4 cells following treatment Specifically, 1×10^6 cells were treated for 4 h (37° C., 5% CO2) with the test compounds in half-log dilutions starting at 3.0 μM and ending at 0.01 μM. […]

Experiment [2] concerns Molt-4 human acute lymphoblastic leukemia cells. The experiment in a line: Molt-4 cell viability assay (CellTiter-Glo, 48 hours, 10% HS). Conditions: read-out: Molt-4 Viability EC50 (nM, 10% HS), non-permeabilized cells. The protocol:
The ability of Bcl-xL inhibitors that are able to traverse cell membranes to inhibit Bcl-xL can be determined in cell-based killing assays using a variety of cell lines and mouse tumor models. For example, their activity on cell viability can be assessed on a panel of cultured tumorigenic and non-tumorigenic cell lines, as well as primary mouse or human cell populations.
In one exemplary set of conditions, Molt-4 (ATCC, Manassas, VA) human acute lymphoblastic leukemia cells were plated 12,500 cells per well in 384-well tissue culture plates (Corning, Corning, NY) in a total volume of 25 μL tissue culture medium supplemented with 10% human serum (Sigma-Aldrich, St. Louis, MO) and treated with a 3-fold serial dilution of the compounds of interest from 10 μM to 0.0005 μM. Each concentration was tested in duplicate at least 3 separate times. The number of viable cells following 48 hours of compound treatment was determined using the CellTiter-Glo®, Luminescent Cell Viability Assay according to the manufacturer's recommendations (Promega Corp., Madison, WI). Compounds were tested in the presence of 10% HS.

Structures are written as SMILES. Read-outs that look alike come from different tables or passages of the source.

By Ki is commonly meant a dissociation constant, usually derived from enzyme kinetics or from competition with a known ligand.

For the molecule `Cc1c(-c2ccc(N3CCc4cccc(C(=O)Nc5nc6ccccc6s5)c4C3)nc2C(=O)O)cnn1CC12CC3(C)CC(C)(C1)CC(OCCNCCCS(=O)(=O)O)(C3)C2` [Example 1.5, 6-[8-(1,3-benzothiazol-2-ylcarbamoyl)-3,4-dihydroisoquinolin-2 (1H)-yl]-3-{1-[(3,5-dimethyl-7-{2-[(3-sulfopropyl)amino]ethoxy}tricyclo[3.3.1.1^3,7]dec-1-yl)methyl]-5-methyl-1H-pyrazol-4-yl}pyridine-2-carboxylic acid], the Ki at Bcl-xL (read-out: Bcl-xL Binding Ki (nM, 1% HS), in the presence of 1% HS) is 0.052 nM; at Bcl-xL (read-out: Bcl-xL Binding Ki, without HS), less than 0.001 nM. Moreover, the results for the EC50 in experiment [1] and in experiment [2] were less than 0.5 nM and 89 nM, respectively.

Source of the values: patent US20240058450A1, “BCL-XL Inhibitory Compounds Having Low Cell Permeability and Antibody Drug Conjugates Including the Same” (AbbVie Inc., priority 2014, published 2024).
